According to article PMC4890168 (Journal of medicinal chemistry, 2016):

Test system: cardiomyocytes isolated from adult mice
Experiment: Contractility in mouse cardiomyocytes
Conditions: compared with lead 2; isoproterenol stimulation

CC1=C(C(=O)Nc2ccc3[nH]ncc3c2)C(c2ccc(F)c(C(=O)NCc3ccccn3)c2)NC(=O)N1 (stereo not shown) [Compound 12h, 4-(4-Fluoro-3-((pyridin-2-ylmethyl)carbamoyl)phenyl)-N-(1H-indazol-5-yl)-6-methyl-2-oxo-1,2,3,4-tetrahydropyrimidine-5-carboxamide]
potency at stimulating cardiomyocyte contraction: equivalent to or slightly more potent than the lead 2
